Test results from PubChem BioAssay AID1486 (The Scripps Research Institute Molecular Screening Center, 2009).
Only a part is listed here, and it is no random draw. Activity calls are given as the source filed them.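 Rule for the calls: active = inhibition above a per-campaign cutoff, the mean inhibition of all tested compounds plus 3 SD (cut at about 27% in these data); inactive = the rest.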

Assay: growth loss in parental Ba/F3 cells – cell-based, murine pro-B, CellTiter-Glo luminescence, counter-screen for JAK2V617F inhibitor project (AID 1486);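 note: 0% = DMSO wells and 100% = JAK Inhibitor I control wells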
Conditions: Ba/F3 parental viability, CellTiter-Glo ATP luminescence; at 5.6 µM; active compounds read high

Structure (SMILES) | inhibition
CN(C)c1ccc(C(=O)NCC2(N3CCCCC3)CCCCC2)cc1 | inactive: 1.15%
CCN1CCC(Nc2cccc(F)c2)CC1 | inactive: 6.65%
CCCOc1ccc(C)cc1CN(CCCl)CCCl | inactive: -2.92%
COc1cc(OC)cc(C(=O)NCC2(N3CCOCC3)CCCCC2)c1 | inactive: 2.81%
CCC(CO)(C(=O)OC1CN2CCC1CC2)c1ccccc1 (centres undefined) | inactive: 3.7%
CC(C)(C)OC(=O)N1CCC(Nc2ccccc2)CC1 | inactive: 4.94%
CCOc1ncccc1C(=O)NCC1(N2CCOCC2)CCCCC1 | inactive: 1.72%
O=C(OC1CN2CCC1CC2)C1c2ccccc2C=Cc2ccccc21 (centres undefined) | inactive: 0.75%
N/C(=N\O)c1c(N)no[n+]1[O-] | inactive: 4.16%
COc1ccc(C(=O)NCC2(N3CCOCC3)CCCCC2)cc1OC | inactive: 7.11%
c1ccc(CN2CCC(Nc3ccccc3)CC2)cc1 | inactive: 4.47%
N#Cc1ccc(C(=O)NCC2(N3CCCCC3)CCCCC2)cc1 | inactive: 10.5%
O=C(NCC1(N2CCOCC2)CCCCC1)c1cc(=O)[nH]c2ccccc12 | inactive: 4.01%
CN1CCN(CCOC(=O)C(O)(c2ccccc2)c2ccccc2)CC1 | inactive: 6.5%
COc1ccc(NC2CCN(C(=O)OC(C)(C)C)CC2)cc1 | inactive: -1.85%
N#CC1(Nc2ccccc2)CCN(CCc2ccccc2)CC1 | inactive: -6.41%
O=C(NCC1(N2CCCCC2)CCCCC1)c1cccc([N+](=O)[O-])c1 | inactive: 5.35%
CN1CCC(Nc2cccc(F)c2)CC1 | inactive: 0.29%
CC(C)c1ccc(NC2CCN(C(=O)OC(C)(C)C)CC2)cc1 | inactive: 0.72%
CN(C)c1cccc(C(=O)NCC2(N3CCCCC3)CCCCC2)c1 | inactive: -0.71%
COc1ccc(CN(CCCl)CCCl)cc1Cl | inactive: -1.74%
O=C(OC1CN2CCC1CC2)C1c2ccccc2Oc2ccccc21 (centres undefined) | inactive: 2.68%
N#CC1(Nc2ccccc2)CCN(Cc2ccccc2)CC1 | inactive: 2.6%
CCOC(=O)N1CCC(Nc2ccc(OC)cc2)CC1 | inactive: 5.49%
O=C(NCC1(N2CCOCC2)CCCCC1)c1cc2ccccc2o1 | inactive: 3.28%
COc1ccc(C(=O)NCC2(N3CCCCC3)CCCCC2)c(OC)c1OC | inactive: -1.97%
Cc1ccc(OCC(C)C)c(CN(CCCl)CCCl)c1 | inactive: -0.9%
COc1ccc(NC2CCN(CCc3ccccc3)CC2)c(OC)c1 | inactive: 3.44%
CCOc1ccc(C)cc1CN(CCCl)CCCl | inactive: -2.34%
